{"sequences": {"note": "The chains behind the UniProt entries cited, without tags or fusion partners. Residues count along the entry.", "UniProt P43220, 24-463 limits assumed": "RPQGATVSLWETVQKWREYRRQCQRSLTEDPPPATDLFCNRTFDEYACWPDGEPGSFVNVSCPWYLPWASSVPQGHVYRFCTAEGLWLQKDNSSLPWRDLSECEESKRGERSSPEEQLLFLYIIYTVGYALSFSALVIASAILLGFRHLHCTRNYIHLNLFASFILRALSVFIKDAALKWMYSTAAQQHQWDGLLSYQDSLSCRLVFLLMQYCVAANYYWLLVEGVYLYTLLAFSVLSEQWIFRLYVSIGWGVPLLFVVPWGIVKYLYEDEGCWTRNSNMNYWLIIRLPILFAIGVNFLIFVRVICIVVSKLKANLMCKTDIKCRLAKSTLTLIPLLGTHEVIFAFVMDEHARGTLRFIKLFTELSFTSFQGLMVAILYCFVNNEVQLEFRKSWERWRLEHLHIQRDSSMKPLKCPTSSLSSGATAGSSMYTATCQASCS"}, "source": "patent US10954221B2", "about": "“GLP-1R agonists and uses thereof” (QILU REGOR THERAPEUTICS INC., priority 2019, dated 2021)", "molecular_target": "GLP1R (Homo sapiens, UniProt P43220)", "test": "GLP1R cAMP assay (HTRF), HEK293/GLP-1R/CRE/Luc, Clone 4", "details": "HEK293T cells (Table 1), concentration giving 50% of the compound's own maximum cAMP level"}
{"smiles": "N#Cc1ccc(COc2cccc(-c3ccc(Oc4nc5ccc(C(=O)O)cc5n4C[C@@H]4CCO4)c(F)c3)n2)c(F)c1", "values": [{"measurement": "EC50", "result": "15 to 150", "unit": "nM"}]}
